Data: PMC5522996, “Big conductance calcium‐activated potassium channel openers control spasticity without sedation” (British Journal of Pharmacology, 2017)

Chains of the proteins cited; added tags and fusions are not shown. Lines headed by an entry give the natural chain unless they say otherwise; changes in a name come on top.
UniProt Q9Y2T6: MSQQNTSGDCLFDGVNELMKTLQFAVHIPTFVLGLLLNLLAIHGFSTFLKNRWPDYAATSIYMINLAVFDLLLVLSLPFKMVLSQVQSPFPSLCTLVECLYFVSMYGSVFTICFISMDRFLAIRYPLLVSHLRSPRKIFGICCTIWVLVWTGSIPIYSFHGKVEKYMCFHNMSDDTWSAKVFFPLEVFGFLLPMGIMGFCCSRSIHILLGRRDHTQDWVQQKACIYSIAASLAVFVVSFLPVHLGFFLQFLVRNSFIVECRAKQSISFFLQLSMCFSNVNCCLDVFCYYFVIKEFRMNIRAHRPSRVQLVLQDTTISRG

Target: T1, hGPR55 (HEK293.GPR55) (Homo sapiens, UniProt Q9Y2T6)
T1 construct: expressed in transfected cells; host or cells: HEK293
Assay: Ca2+ Ion Flux assay, HEK293.GPR55
Type: cell-based

AM251 [reference compound]
Calcium fluxes in HEK293.GPR55: demonstrate calcium fluxes
